Test results taken from patent US20130309768A1, “METHOD FOR CULTURING HUMAN PLURIPOTENT STEM CELLS” (NATIONAL INSTITUTE OF BIOMEDICAL INNOVATION, priority 2011, published 2013).

Tested on: ES cell line H9 (WA09)
Test: Fluorescent immunostaining of undifferentiation/differentiation markers, hESF9 medium with albumin and/or oleic acid
Type: cell-based, human
Text: Bovine albumin (bovine serum albumin: BSA) has been used in many conventional media such as the aforementioned hESF9 medium. Since it is an animal-derived material, its substitution with an animal product-free ingredient was studied. […] Using the undifferentiation markers SSEA-4, TRA-1-60, and Nanog, and the differentiation marker SSEA-1, effects of adding bovine albumin or recombinant human albumin (rHSA, from Millipore Corporation) and/or oleic acid on the maintenance of an undifferentiated state of the ES cells were studied. When adding oleic acid and albumin, they were added in the form of albumin-conjugated oleic acid. Among the ingredients of the hESF9 medium, BSA and oleic acid were substituted with BSA-conjugated oleic acid (medium condition 1), rHSA alone (medium condition 2), or rHSA-conjugated oleic acid (medium condition 3). A medium in which none of BSA, rHSA, or oleic acid was added to the hESF9 medium was used as a negative control (medium condition 4). Cell line H9 (WA09) was cultured under these conditions. Cell line H9 (WA09) being cultured was cultured in hESF9 medium for 1 passage, subjected to fluorescent immunostaining, and analyzed on the percentage of positive cells with expression. The cells were fixed with 4% paraformaldehyde (PFA) in PBS at room temperature for 15 minutes, blocked with bovine serum, and then immunostained using anti-SSEA-4 antibody (from Abcam plc.) and AlexaFluor-labeled anti-mouse IgG (from Invitrogen Corporation); anti-TRA-1-60 antibody (from Abcam plc.) and AlexaFluor-labeled anti-mouse IgM (from Invitrogen Corporation); or anti-SSEA-1 antibody (from Abcam plc.) and AlexaFluor-labeled anti-mouse IgM (from Invitrogen Corporation). After the blocking with bovine serum comprising Triton X, the cells were treated with immunostaining with anti-Nanog antibody (from Cell Signaling Technology, Inc.) and anti-OCT4 antibody (from Santa Cruz Biotechnology, Inc.), reacted with an AlexaFluor-labeled secondary antibody, and observed under fluorescent microscope.
Under the medium condition (3), cultured cells of cell line H9 (WA09) at passage 3 were examined with fluorescent immunostaining using the undifferentiation markers SSEA-4, Tra1-60, and Nanog, and the differentiation marker SSEA-1.

[1] = medium condition (3), passage 3, FIG. 3

Q: Which results are given for “rHSA conjugated with oleic acid: 9.4 μg/mL oleic acid complexed with 1 mg/mL recombinant human albumin”?
A: percentage of positive cells expressing the differentiation marker SSEA-1 (cultured for 1 passage, FIG. 2): decreases the expression of differentiation markers; expression of the differentiation marker SSEA-1 [1]: low expression; expression of undifferentiation markers SSEA-4, Tra1-60, and Nanog [1]: high expression

Q: For “rHSA: recombinant human albumin from Millipore Corporation, added alone to hESF9 medium”, which “percentage of positive cells expressing the differentiation marker SSEA-1” value (cultured for 1 passage, FIG. 2) is on record?
A: Its value is “significantly (* mark) increased”.

Q: What about the “percentage of positive cells expressing the undifferentiation marker SSEA-4, TRA-1-60, or Nanog” value (cultured for 1 passage, FIG. 2) of the same substance?
A: The value was “does not affect”.
